How the values were obtained:
[1] = tested on: rat luteal ovarian LH receptors; assay: Inhibition of 125I-hCG binding to rat corpora luteal LH receptors (radioligand receptor assay); details: competition with 125I-hCG, rat corpora lutea
Procedure: (§1) These values were obtained by dividing the concentration of analog required to inhibit ^125 I-hCG binding to rat luteal ovarian LH receptors or ^125 I-hFSH binding to bovine testes FSH receptors by 50% into that required for recombinant hCG and recombinant hFSH, respectively. The concentrations of the analogs were determined by sandwich immunoassay using antibodies B105 and All3. The term "N.D." means not determined because concentrations of analog were not employed high enough to detect 50% inhibition.
(§2) An aliquot of the ligation mixture was taken and used to transform DH5-alpha strain E. coli. (obtained from Bethesda Research Laboratories, Gaithersburg, Md.). Plasmid DNAs from ampicillin-resistant DH5-alpha clones were screened by digestion with BglII (which is unique to vectors containing the cassette) and EcoRI (which cuts in the vector). Positive clones were identified by the presence of two fragments (approximately 0.8 Kbp and 2.9 Kbp). […] These were present in the culture media and heterodimer was detected using sandwich immunoassays employing monoclonal antibodies All3 and B105 (10). The protein was concentrated by ultrafiltration and monitored for its abilities to bind to LH and FSH receptors by radioligand receptor assays using ^125 I-hCG and ^125 I-hFSH as tracers and rat ovarian corpora lutea and bovine testes as sources of LH and FSH receptors as described (10). […]

[2] = Half-life in rat serum after i.v. injection, by sandwich immunoassay; assay type: in vivo; details: 5-15 micrograms i.v.
Procedure: FIG. 6 illustrates the half lives of hCG isolated from the urine of pregnant women (uhCG), hCG made in cell culture (rhCG), hFSH made in cell culture (rhFSH), DG (CF94-117) made in cell culture, and PRM1 (CFC94-114) made in cell culture. In these experiments, 5-15 micrograms of the proteins were injected intravenously into the external jugular vein of rats that had been anesthetized with ether. At the times indicated on the abscissa, the rats were reanesthetized and 0.2 ml of blood withdrawn and allowed to clot. The serum from this blood was obtained by centrifuging the clotted blood at 2000×g for 30 minutes. For measurements of hCG, DG, and PRM1, aliquots of the serum (0.1-50 microliters) were used in sandwich immunoassays employing A113 as a capture antibody and radioiodinated B105 as a detection antibody. hCG purified from urine was used as a standard curve to measure hCG, DG, and PRM1. […] FIG. 6 illustrates that all the analogs can be detected in serum for several hours after they have been injected into rats. The value obtained at 1 hour was normalized to be 100% and the amounts of materials that remained after this time were expressed as a percentage of the amount at 1 hour. […]

[3] = tested on: bovine testes FSH receptors; assay: Inhibition of 125I-hFSH binding to bovine testes tissue homogenates (radioligand receptor assay); details: competition with 125I-hFSH
Procedure: as §1, §2

Row | Substance | Binding to LH receptors (in words) [1] | Time detectable in serum after injection [2] [h] | Binding to FSH receptors (in words) [3]
1 | rhFSH: recombinant human follicle stimulating hormone, hFSH made in cell culture [reference compound] | several orders of magnitude greater than that of hCG |  | 
2 | rhCG: recombinant human chorionic gonadotropin, hCG made in cell culture [reference compound] |  | ≥ 24 | several orders of magnitude greater than that of hFSH
3 | Urinary hCG: hCG isolated from the urine of pregnant women |  | ≥ 24 | 
